By pIC50 is commonly meant the negative decadic logarithm of the IC50, by convention in mol/L.

By UniProt entry, the sequences of proteins in these tests, tags left out. Where a name states a change or a piece, a line headed by the entry shows the natural chain unless it says otherwise.
UniProt P42336, whole entry: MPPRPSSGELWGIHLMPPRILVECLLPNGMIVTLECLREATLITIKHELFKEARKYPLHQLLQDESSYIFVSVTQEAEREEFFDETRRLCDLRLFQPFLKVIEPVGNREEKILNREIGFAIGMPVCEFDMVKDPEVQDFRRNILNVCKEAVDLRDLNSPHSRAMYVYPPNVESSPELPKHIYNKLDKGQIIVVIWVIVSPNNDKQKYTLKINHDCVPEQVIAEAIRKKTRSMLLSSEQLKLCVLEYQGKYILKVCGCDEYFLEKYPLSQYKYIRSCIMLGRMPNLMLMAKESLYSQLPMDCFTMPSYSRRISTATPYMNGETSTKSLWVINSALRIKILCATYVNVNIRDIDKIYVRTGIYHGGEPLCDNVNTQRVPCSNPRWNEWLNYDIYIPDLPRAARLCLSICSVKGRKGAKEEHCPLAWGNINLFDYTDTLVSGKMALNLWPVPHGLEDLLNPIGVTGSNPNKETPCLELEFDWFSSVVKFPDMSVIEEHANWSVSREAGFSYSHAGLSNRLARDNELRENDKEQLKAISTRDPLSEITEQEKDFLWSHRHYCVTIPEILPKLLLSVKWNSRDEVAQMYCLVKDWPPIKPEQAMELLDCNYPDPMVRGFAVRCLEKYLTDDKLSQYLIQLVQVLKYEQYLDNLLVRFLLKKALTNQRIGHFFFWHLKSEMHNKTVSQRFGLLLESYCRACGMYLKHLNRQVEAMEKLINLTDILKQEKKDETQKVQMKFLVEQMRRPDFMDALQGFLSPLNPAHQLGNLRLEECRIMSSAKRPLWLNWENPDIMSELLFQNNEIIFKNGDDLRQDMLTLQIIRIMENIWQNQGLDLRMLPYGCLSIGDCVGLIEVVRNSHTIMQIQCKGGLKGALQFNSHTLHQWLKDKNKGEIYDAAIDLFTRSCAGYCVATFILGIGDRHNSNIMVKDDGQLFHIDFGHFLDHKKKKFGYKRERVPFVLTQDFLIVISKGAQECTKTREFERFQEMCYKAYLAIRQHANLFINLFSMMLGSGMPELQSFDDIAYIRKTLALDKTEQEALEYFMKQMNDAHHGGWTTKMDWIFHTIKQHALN
UniProt P42338: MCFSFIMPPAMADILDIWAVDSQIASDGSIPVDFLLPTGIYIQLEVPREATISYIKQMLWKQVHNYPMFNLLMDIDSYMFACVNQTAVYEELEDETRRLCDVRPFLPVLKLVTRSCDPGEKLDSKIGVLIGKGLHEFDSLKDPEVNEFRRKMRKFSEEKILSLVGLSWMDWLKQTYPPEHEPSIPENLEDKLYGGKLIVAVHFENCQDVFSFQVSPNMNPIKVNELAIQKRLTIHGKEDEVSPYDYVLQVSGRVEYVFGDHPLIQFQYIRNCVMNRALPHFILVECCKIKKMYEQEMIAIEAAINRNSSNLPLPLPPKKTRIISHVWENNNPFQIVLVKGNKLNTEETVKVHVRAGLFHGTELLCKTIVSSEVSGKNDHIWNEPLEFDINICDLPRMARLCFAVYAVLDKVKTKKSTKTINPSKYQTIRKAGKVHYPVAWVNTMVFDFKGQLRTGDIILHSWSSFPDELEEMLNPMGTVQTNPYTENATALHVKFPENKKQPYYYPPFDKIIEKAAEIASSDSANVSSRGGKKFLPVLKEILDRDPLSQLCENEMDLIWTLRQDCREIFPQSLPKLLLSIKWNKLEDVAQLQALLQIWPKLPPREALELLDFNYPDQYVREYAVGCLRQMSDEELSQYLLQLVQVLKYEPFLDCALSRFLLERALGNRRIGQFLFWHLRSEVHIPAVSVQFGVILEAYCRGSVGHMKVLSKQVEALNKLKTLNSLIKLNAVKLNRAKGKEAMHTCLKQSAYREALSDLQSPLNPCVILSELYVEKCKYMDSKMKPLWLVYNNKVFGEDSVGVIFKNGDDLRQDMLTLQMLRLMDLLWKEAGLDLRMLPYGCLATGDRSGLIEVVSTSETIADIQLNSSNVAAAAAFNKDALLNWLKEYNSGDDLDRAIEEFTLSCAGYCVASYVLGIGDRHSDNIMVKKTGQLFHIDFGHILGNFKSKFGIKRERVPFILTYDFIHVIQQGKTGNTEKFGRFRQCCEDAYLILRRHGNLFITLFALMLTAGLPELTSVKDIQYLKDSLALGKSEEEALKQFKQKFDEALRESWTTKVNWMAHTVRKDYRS
UniProt P48736: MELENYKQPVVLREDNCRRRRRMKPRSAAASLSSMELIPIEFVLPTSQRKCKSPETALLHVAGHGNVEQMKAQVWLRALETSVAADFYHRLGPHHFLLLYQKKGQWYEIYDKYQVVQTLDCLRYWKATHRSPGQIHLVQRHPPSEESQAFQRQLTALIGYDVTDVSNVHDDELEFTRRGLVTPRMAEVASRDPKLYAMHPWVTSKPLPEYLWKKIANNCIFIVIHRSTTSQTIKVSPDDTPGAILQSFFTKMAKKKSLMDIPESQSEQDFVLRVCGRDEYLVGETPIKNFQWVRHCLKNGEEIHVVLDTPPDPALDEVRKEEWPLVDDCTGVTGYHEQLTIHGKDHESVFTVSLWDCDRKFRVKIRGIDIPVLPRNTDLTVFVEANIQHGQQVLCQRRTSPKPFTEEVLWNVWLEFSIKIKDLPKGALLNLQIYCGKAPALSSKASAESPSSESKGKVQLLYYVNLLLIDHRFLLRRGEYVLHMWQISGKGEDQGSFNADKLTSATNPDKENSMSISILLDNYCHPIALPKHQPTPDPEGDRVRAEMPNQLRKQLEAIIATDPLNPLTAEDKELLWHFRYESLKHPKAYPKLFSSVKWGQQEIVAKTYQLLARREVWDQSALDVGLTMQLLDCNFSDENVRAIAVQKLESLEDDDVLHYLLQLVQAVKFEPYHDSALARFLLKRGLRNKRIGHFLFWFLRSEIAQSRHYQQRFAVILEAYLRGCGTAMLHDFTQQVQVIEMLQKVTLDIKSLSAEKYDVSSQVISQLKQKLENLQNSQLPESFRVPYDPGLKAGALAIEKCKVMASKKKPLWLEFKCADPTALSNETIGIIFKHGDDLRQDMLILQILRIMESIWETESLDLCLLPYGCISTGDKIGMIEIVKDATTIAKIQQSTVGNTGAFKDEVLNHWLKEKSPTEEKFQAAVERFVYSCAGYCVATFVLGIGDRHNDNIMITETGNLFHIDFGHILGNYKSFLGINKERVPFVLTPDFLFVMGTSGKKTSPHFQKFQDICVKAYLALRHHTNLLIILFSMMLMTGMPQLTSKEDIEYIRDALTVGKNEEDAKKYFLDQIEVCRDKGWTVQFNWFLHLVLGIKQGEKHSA
UniProt O00329: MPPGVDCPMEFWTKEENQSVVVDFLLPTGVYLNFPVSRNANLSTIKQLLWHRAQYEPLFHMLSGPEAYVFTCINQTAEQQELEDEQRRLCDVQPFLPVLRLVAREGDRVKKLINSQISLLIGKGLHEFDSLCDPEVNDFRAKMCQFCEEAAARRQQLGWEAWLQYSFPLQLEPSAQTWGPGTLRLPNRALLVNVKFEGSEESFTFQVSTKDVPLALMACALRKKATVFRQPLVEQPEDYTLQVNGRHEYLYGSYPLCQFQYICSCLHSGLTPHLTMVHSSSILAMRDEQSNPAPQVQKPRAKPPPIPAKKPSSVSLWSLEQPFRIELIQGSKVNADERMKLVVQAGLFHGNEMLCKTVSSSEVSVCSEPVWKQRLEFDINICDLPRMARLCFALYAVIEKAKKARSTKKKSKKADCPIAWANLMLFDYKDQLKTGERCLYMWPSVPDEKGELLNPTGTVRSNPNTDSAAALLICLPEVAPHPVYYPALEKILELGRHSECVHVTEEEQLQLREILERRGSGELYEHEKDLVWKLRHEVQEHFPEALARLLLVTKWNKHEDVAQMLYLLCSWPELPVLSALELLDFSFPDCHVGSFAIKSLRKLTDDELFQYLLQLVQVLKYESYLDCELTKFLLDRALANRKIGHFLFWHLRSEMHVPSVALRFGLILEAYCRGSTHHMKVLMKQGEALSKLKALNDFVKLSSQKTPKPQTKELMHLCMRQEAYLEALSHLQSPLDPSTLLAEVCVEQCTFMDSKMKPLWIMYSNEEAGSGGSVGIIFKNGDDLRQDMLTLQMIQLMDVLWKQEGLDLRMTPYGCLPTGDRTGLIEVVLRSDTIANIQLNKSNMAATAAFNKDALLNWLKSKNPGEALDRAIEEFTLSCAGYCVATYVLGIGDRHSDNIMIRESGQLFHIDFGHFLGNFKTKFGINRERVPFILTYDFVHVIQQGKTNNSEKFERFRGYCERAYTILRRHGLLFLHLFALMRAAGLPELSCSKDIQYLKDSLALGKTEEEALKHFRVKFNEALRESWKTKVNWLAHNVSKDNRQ

What all share (type): binding
The target in one assay is PI3K alpha (PI3Ka) (Homo sapiens, UniProt P42336). Nature of the assay: kinobeads assay, PI3K alpha. The settings on record: Jurkat cell lysate, read-out: PI3Ka inhibition value (IC50), activity level.
In another assay the target is PI3K beta (PI3 Kb) (Homo sapiens, UniProt P42338). Nature of the assay: kinobeads assay, PI3K beta. The settings on record: Jurkat cell lysate.
Another assay concerns the target PI3K gamma (PI3 Kg) (Homo sapiens, UniProt P48736). Nature of the assay: kinobeads assay, PI3K gamma. The conditions noted are these: Jurkat cell lysate.
For another assay, the target named is PI3K delta (PI3 Kd) (Homo sapiens, UniProt O00329). Nature of the assay: kinobeads assay, PI3K delta. The conditions noted are these: Jurkat cell lysate.
Setting [1] is: read-out: PI3Kb inhibition value (IC50), activity level.
Where [2] appears, read: read-out: PI3Kg inhibition value (IC50), activity level.
The mark [3] stands for this setting: read-out: PI3Kd inhibition value (IC50), activity level.
Where [4] appears, read: read-out: PI3Kb inhibition value (IC50), numeric bound.
[5] abbreviates: read-out: PI3Kd inhibition value (IC50), numeric bound.

The structures appear in SMILES notation. pIC50: −log10 of the molar value. Where two headings read alike, the source gives them in different places.

On to `CNC(=O)Nc1ccc(-c2nc(N3CCOC[C@@H]3C)c3c(n2)C(C)(C)S(=O)(=O)C3)c(F)c1` [Example 66, (S)-1-(4-(7,7-dimethyl-4-(3-methylmorpholino)-6,6-dioxido-5,7-dihydrothieno[3,4-d]pyrimidin-2-yl)-3-fluorophenyl)-3-methylurea], for which the pIC50 at PI3K alpha (PI3Ka), at PI3K beta (PI3 Kb) (setting [1]), on PI3K gamma (PI3 Kg) (setting [2]) and on PI3K delta (PI3 Kd) (setting [3]) was under 5.00 throughout.

As for `C[C@@H]1COCCN1c1nc(-c2ccc(NC(=O)NC3CC3)cc2)nc2c1CS(=O)(=O)C2(C)C` [Example 54, (R)-1-cyclopropyl-3-(4-(7,7-dimethyl-4-(3-methylmorpholino)-6,6-dioxido-5,7-dihydrothieno[3,4-d]pyrimidin-2-yl)phenyl)urea], the pIC50 at PI3K alpha (PI3Ka) was 5.00 to 6.00; on PI3K beta (PI3 Kb) (setting [1]), 5.00 to 6.00; on PI3K gamma (PI3 Kg) (setting [2]), under 5.00; at PI3K delta (PI3 Kd) (setting [3]) it was under 5.00.

As to `CCNC(=O)Nc1ccc(-c2nc(N3CCOC[C@H]3C)c3c(n2)C(C)(C)S(=O)(=O)C3)cc1` [Example 55, (R)-1-(4-(7,7-dimethyl-4-(3-methylmorpholino)-6,6-dioxido-5,7-dihydrothieno[3,4-d]pyrimidin-2-yl)phenyl)-3-ethylurea], the pIC50 at PI3K alpha (PI3Ka) was 5.00 to 6.00; on PI3K beta (PI3 Kb) (setting [1]) it was under 5.00; on PI3K gamma (PI3 Kg) (setting [2]) it was under 5.00; at PI3K delta (PI3 Kd) (setting [3]) it was under 5.00.

For `CCNC(=O)Nc1ccc(-c2nc3c(c(N4CCOC[C@@H]4C)n2)CS(=O)(=O)C(C)(C)C3)cc1` [Example 73, (S)-1-(4-(7,7-dimethyl-4-(3-methylmorpholino)-6,6-dioxido-7,8-dihydro-5H-thiopyrano[4,3-d]pyrimidin-2-yl)phenyl)-3-ethylurea], the pIC50 on PI3K alpha (PI3Ka), on PI3K beta (PI3 Kb) (setting [1]), at PI3K gamma (PI3 Kg) (setting [2]) and on PI3K delta (PI3 Kd) (setting [3]) was under 5.00 throughout.

For the compound `CC1(C)c2nc(-c3ccc(NC(=O)NC4CC4)cc3)nc(N3C4CCC3COC4)c2CS1(=O)=O` [Example 59, 1-(4-(4-(3-oxa-8-azabicyclo[3.2.1]octan-8-yl)-7,7-dimethyl-6,6-dioxido-5,7-dihydrothieno[3,4-d]pyrimidin-2-yl)phenyl)-3-cyclopropylurea], the pIC50 on PI3K alpha (PI3Ka), on PI3K beta (PI3 Kb) (setting [1]), on PI3K gamma (PI3 Kg) (setting [2]) and at PI3K delta (PI3 Kd) (setting [3]) was under 5.00 each time.

In the case of `C[C@H]1COCCN1c1nc(-c2ccc(NC(=O)NC3CC3)cc2)nc2c1[C@H](C)S(=O)(=O)C2` (single isomer, unassigned) [Example 10], the pIC50 was under 5.00 on PI3K alpha (PI3Ka); under 5.52 on PI3K beta (PI3 Kb) (setting [4]); under 5.52 at PI3K gamma (PI3 Kg) (read-out: PI3Kg inhibition value (IC50), numeric bound); under 5.52 on PI3K delta (PI3 Kd) (setting [5]).

Consider `C[C@H]1COCCN1c1nc(-c2ccc(NC(=O)NC3CC3)cc2)nc2c1CS(=O)(=O)C(C)(C)C2` [Example 70, (S)-1-cyclopropyl-3-(4-(7,7-dimethyl-4-(3-methylmorpholino)-6,6-dioxido-7,8-dihydro-5H-thiopyrano[4,3-d]pyrimidin-2-yl)phenyl)urea], for which the pIC50 at PI3K alpha (PI3Ka), on PI3K beta (PI3 Kb) (setting [1]), at PI3K gamma (PI3 Kg) (setting [2]) and on PI3K delta (PI3 Kd) (setting [3]) was under 5.00 each time.

`C[C@@H]1COCCN1c1nc(-c2ccc(NC(=O)NC3CC3)cc2)nc2c1CS(=O)(=O)C2` [Example 17, (R)-1-cyclopropyl-3-(4-(4-(3-methylmorpholino)-6,6-dioxido-5,7-dihydrothieno[3,4-d]pyrimidin-2-yl)phenyl)urea]: the pIC50 at PI3K alpha (PI3Ka), at PI3K beta (PI3 Kb) (setting [1]), at PI3K gamma (PI3 Kg) (setting [2]) and on PI3K delta (PI3 Kd) (setting [3]) was under 5.00 each time.

For `CC1c2nc(-c3ccc(NC(=O)NC4CC4)cc3)nc(N3CCOC[C@@H]3C)c2C(C)S1(=O)=O` (stereo partly drawn) [Example 44, 1-cyclopropyl-3-(4-(5,7-dimethyl-4-((S)-3-methylmorpholino)-6,6-dioxido-5,7-dihydrothieno[3,4-d]pyrimidin-2-yl)phenyl)urea], the pIC50 at PI3K alpha (PI3Ka) is 5.00 to 6.00; on PI3K beta (PI3 Kb) (setting [1]), under 5.00; at PI3K gamma (PI3 Kg) (setting [2]), under 5.00; at PI3K delta (PI3 Kd) (setting [3]), under 5.00.

Regarding `CCNC(=O)Nc1ccc(-c2nc3c(c(N4CCOC[C@@H]4C)n2)C(CC)S(=O)(=O)C3)cc1` (stereo partly drawn) [Example 67, 1-ethyl-3-(4-(5-ethyl-4-((S)-3-methylmorpholino)-6,6-dioxido-5,7-dihydrothieno[3,4-d]pyrimidin-2-yl)phenyl)urea], the pIC50 at PI3K alpha (PI3Ka), on PI3K beta (PI3 Kb) (setting [1]), on PI3K gamma (PI3 Kg) (setting [2]) and at PI3K delta (PI3 Kd) (setting [3]) was under 5.00 in each case.

`CNC(=O)Nc1ccc(-c2nc(N3CCOC[C@@H]3C)c3c(n2)C(C)(C)S(=O)(=O)C3)cc1F` [Example 65, (S)-1-(4-(7,7-dimethyl-4-(3-methylmorpholino)-6,6-dioxido-5,7-dihydrothieno[3,4-d]pyrimidin-2-yl)-2-fluorophenyl)-3-methylurea]: the pIC50 at PI3K alpha (PI3Ka), at PI3K beta (PI3 Kb) (setting [1]), at PI3K gamma (PI3 Kg) (setting [2]) and at PI3K delta (PI3 Kd) (setting [3]) was under 5.00 each time.

In the case of `O=C(Nc1ccc(-c2nc3c(c(N4CCOCC4)n2)CS(=O)(=O)C3)cc1)NC1CC1` [Example 18, 1-cyclopropyl-3-(4-(4-morpholino-6,6-dioxido-5,7-dihydrothieno[3,4-d]pyrimidin-2-yl)phenyl)urea], the pIC50 on PI3K alpha (PI3Ka), at PI3K beta (PI3 Kb) (setting [1]), on PI3K gamma (PI3 Kg) (setting [2]) and on PI3K delta (PI3 Kd) (setting [3]) was under 5.00 each time.

Turning to `CCNC(=O)Nc1ccc(-c2nc(N3CCOC[C@@H]3C)c3c(n2)C(C)(C)S(=O)(=O)C3C)cc1` (stereo partly drawn) [Example 42, 1-ethyl-3-(4-(5,7,7-trimethyl-4-((S)-3-methylmorpholino)-6,6-dioxido-5,7-dihydrothieno[3,4-d]pyrimidin-2-yl)phenyl)urea], the pIC50 on PI3K alpha (PI3Ka), at PI3K beta (PI3 Kb) (setting [1]), at PI3K gamma (PI3 Kg) (setting [2]) and on PI3K delta (PI3 Kd) (setting [3]) was under 5.00 in each case.

Regarding `C[C@H]1COCCN1c1nc(-c2ccc(NC(=O)NC3CC3)cc2)nc2c1S(=O)(=O)C(C)(C)C2` [Example 37, (S)-1-cyclopropyl-3-(4-(6,6-dimethyl-4-(3-methylmorpholino)-5,5-dioxido-6,7-dihydrothieno[3,2-d]pyrimidin-2-yl)phenyl)urea], the pIC50 at PI3K alpha (PI3Ka), at PI3K beta (PI3 Kb) (setting [1]), at PI3K gamma (PI3 Kg) (setting [2]) and at PI3K delta (PI3 Kd) (setting [3]) was under 5.00 in each case.

Take `CCNC(=O)Nc1ccc(-c2nc(N3CCOC[C@@H]3C)c3c(n2)C(C)(C)S(=O)(=O)C3)c(F)c1` [Example 69, (S)-1-(4-(7,7-dimethyl-4-(3-methylmorpholino)-6,6-dioxido-5,7-dihydrothieno[3,4-d]pyrimidin-2-yl)-3-fluorophenyl)-3-ethylurea]: the pIC50 at PI3K alpha (PI3Ka), at PI3K beta (PI3 Kb) (setting [1]), on PI3K gamma (PI3 Kg) (setting [2]) and on PI3K delta (PI3 Kd) (setting [3]) was under 5.00 in each case.

On to `CC1c2c(nc(-c3ccc(NC(=O)NC4CC4)cc3)nc2N2CCOC[C@@H]2C)CCS1(=O)=O` (stereo partly drawn) [Example 74, 1-cyclopropyl-3-(4-(5-methyl-4-((S)-3-methylmorpholino)-6,6-dioxido-7,8-dihydro-5H-thiopyrano[4,3-d]pyrimidin-2-yl)phenyl)urea], for which the pIC50 on PI3K alpha (PI3Ka), at PI3K beta (PI3 Kb) (setting [1]), at PI3K gamma (PI3 Kg) (setting [2]) and on PI3K delta (PI3 Kd) (setting [3]) was under 5.00 in each case.

With `CC1c2c(nc(-c3ccc(NC(=O)NC4CC4)cc3)nc2N2CCOC[C@H]2C)CS1(=O)=O` (stereo partly drawn) [Example 48, 1-cyclopropyl-3-(4-(5-methyl-4-((R)-3-methylmorpholino)-6,6-dioxido-5,7-dihydrothieno[3,4-d]pyrimidin-2-yl)phenyl)urea], the pIC50 on PI3K alpha (PI3Ka), at PI3K beta (PI3 Kb) (setting [1]), on PI3K gamma (PI3 Kg) (setting [2]) and on PI3K delta (PI3 Kd) (setting [3]) was under 5.00 in each case.

As to `CCCNC(=O)Nc1ccc(-c2nc3c(c(N4CCOC[C@@H]4C)n2)C(C)S(=O)(=O)C3)cc1` (stereo partly drawn) [Example 45, 1-(4-(5-methyl-4-((S)-3-methylmorpholino)-6,6-dioxido-5,7-dihydrothieno[3,4-d]pyrimidin-2-yl)phenyl)-3-propylurea], the pIC50 is 5.00 to 6.00 at PI3K alpha (PI3Ka), under 5.00 at PI3K beta (PI3 Kb) (setting [1]), under 5.00 at PI3K gamma (PI3 Kg) (setting [2]) and under 5.00 on PI3K delta (PI3 Kd) (setting [3]).

With `C[C@H]1COCCN1c1nc(-c2ccc(NC(=O)NC3CC3)cc2)nc2c1CS(=O)(=O)C2(C)F` (stereo partly drawn) [Example 43, 1-cyclopropyl-3-(4-(7-fluoro-7-methyl-4-((S)-3-methylmorpholino)-6,6-dioxido-5,7-dihydrothieno[3,4-d]pyrimidin-2-yl)phenyl)urea], the pIC50 on PI3K alpha (PI3Ka), at PI3K beta (PI3 Kb) (setting [1]), on PI3K gamma (PI3 Kg) (setting [2]) and on PI3K delta (PI3 Kd) (setting [3]) was under 5.00 each time.

For the compound `CCNC(=O)Nc1ccc(-c2nc3c(c(N4CCOC[C@@H]4C)n2)CS(=O)(=O)C3)cc1` [Example 11, (S)-1-ethyl-3-(4-(4-(3-methylmorpholino)-6,6-dioxido-5,7-dihydrothieno[3,4-d]pyrimidin-2-yl)phenyl)urea], the pIC50 at PI3K beta (PI3 Kb) (setting [1]), at PI3K gamma (PI3 Kg) (setting [2]) and on PI3K delta (PI3 Kd) (setting [3]) was under 5.00 throughout.

Consider `C[C@@H]1c2c(nc(-c3ccc(NC(=O)NC4CC4)cc3)nc2N2CCOC[C@@H]2C)CS1(=O)=O` (single isomer, unassigned) [Example 9], for which the pIC50 on PI3K alpha (PI3Ka) is 5.00 to 6.00; on PI3K beta (PI3 Kb) (setting [4]), under 5.52; at PI3K delta (PI3 Kd) (setting [5]) it was under 5.52.

Turning to `CC1c2c(nc(-c3ccc(NC(=O)NC4CC4)cc3)nc2N2CC3CCC(C2)O3)CS1(=O)=O` (stereo not shown) [Example 34, 1-(4-(4-(8-oxa-3-azabicyclo[3.2.1]octan-3-yl)-5-methyl-6,6-dioxido-5,7-dihydrothieno[3,4-d]pyrimidin-2-yl)phenyl)-3-cyclopropylurea], the pIC50 at PI3K alpha (PI3Ka), on PI3K beta (PI3 Kb) (setting [1]) and at PI3K delta (PI3 Kd) (setting [3]) was under 5.00 each time.

Values taken from US9242993B2, “Morpholino substituted bicyclic pyrimidine urea or carbamate derivatives as mTOR inhibitors” (CELLZOME LIMITED, priority 2011, dated 2016).
